In the assay the test system is diet induced obese (DIO) mouse. As to the kind of experiment: Diet Induced Obesity (DIO) mouse model. The assay is classed as in vivo, C57BL/6 mice. The conditions noted are these: DIO mice, after 5 weeks of treatment; SRT1933 100 mg/kg, rosiglitazone 5 mg/kg once daily oral. The method, then:
The vehicle used was 2% HPMC −0.2% DOSS. Individual mouse body weights were measured twice weekly. Every 2 weeks throughout the study, mice from each group were bled via the tail vein for determination of blood glucose and blood plasma insulin. After 1, 3 and 5 weeks of dosing, a fasted blood glucose measure was taken and after 5 weeks of treatment an IPGTT was conducted on all mice from each of the groups. After 9 weeks of treatment, an ITT was conducted and a rectal body temperature was taken on all mice from each of the groups. Statistical analysis was completed using the JMP program (Version 6). Data were analyzed by a one way ANOVA with comparison to control using a Dunnett's Test. A p value <0.05 indicated a significant difference between groups.

As to `CN(CCOc1ccc(CC2SC(=O)NC2=O)cc1)c1ccccn1` (stereo not shown) [rosiglitazone, reference compound], the “glucose excursion in OGTT (AUC)” value stood at 496 ± 20 mg·h/dL.

For the origin of these results see patent publication US20080249103A1, “Sirtuin polymorphisms and methods of use thereof” (Sirtris Pharmaceuticals, Inc., priority 2006, published 2008).
